Here are results for one molecule from patent US20140163096A1, “METHODS AND COMPOSITIONS FOR TREATING HIV-ASSOCIATED DIARRHEA” (priority 2012, published 2014).

Chains of the proteins cited; added tags and fusions are not shown. Lines headed by an entry give the natural chain unless they say otherwise; changes in a name come on top.
UniProt Q12809: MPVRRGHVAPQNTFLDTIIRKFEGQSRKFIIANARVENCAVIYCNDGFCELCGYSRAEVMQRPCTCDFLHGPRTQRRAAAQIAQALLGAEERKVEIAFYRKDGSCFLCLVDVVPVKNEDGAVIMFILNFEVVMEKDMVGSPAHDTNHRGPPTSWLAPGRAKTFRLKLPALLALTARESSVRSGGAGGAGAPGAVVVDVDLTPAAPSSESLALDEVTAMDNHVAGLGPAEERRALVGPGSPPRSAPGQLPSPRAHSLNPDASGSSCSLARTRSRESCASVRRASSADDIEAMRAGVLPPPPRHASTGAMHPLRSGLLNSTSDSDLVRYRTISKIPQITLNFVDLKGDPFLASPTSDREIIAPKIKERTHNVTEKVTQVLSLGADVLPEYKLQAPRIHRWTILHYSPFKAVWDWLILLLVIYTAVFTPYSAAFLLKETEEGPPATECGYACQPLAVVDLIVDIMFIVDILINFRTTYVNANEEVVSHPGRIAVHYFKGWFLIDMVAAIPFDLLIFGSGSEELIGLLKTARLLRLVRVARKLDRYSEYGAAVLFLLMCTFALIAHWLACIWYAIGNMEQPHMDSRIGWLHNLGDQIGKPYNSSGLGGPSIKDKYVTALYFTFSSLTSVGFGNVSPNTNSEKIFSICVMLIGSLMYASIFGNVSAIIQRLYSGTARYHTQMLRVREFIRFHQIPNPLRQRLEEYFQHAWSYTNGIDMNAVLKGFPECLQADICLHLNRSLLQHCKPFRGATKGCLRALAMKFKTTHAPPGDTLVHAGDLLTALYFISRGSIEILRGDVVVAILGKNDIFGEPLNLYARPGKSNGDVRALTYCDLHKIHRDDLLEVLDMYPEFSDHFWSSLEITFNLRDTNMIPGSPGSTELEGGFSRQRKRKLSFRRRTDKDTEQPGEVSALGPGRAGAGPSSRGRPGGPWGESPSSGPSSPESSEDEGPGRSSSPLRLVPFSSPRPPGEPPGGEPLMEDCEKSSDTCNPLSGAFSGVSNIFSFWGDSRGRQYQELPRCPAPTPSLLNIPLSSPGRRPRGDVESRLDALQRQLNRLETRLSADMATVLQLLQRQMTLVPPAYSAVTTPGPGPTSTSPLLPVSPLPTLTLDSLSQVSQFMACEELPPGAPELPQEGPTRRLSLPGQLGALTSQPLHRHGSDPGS

The target in the data set is hERG ion channel (Homo sapiens, UniProt Q12809). As to the kind of experiment: in vitro.

The inhibition is the relative decrease from the control value, in per cent. A lower inhibition goes with little suppression. In turn, `COc1cc(N)c(Cl)cc1C(=O)NC1CCN(CCCOc2ccc(F)cc2)CC1OC` (stereo not shown) [Cisapride] showed an inhibition at 10 µM of 99.7%.
